## Yeast mating assay B: variants of the scFv Ab-14

Source: Li et al. 2023 (doi:10.1038/s41467-023-39022-2), MIT Lincoln Laboratory and A-Alpha Bio; data file from the FLAb repository.

Binding partner: SARS-CoV-2 spike HR2 peptide, sequence PDVDLGDISGINAS.

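The starting antibody came from a phage panning campaign against this peptide. This is the validation round: designs drawn from the data on random variants, tested in the same kind of assay. Their group label is 14L_En_HC (En: ensemble of fine-tuned language models; HC: hill climbing; a sequence that several methods proposed may carry one label only). Affinity was read by AlphaSeq, a pooled yeast mating assay with surface-displayed partners. Mating (16 h, 30 °C) was followed by selection of diploids and sequencing of their barcodes. Read counts were normalised to the haploid input and turned into Kd by a linear fit to BCL2-family pairs of known affinity, for each replicate. The assay was run in six technical replicates.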

Each scFv is VH, a (GGGGS)3 linker, VL, as in the parent Ab-14, and differs from it in the CDRs of the light chain only.
VH: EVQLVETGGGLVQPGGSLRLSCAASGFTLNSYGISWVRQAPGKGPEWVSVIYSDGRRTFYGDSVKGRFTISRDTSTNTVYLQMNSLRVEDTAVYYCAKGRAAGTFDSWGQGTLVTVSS
VL: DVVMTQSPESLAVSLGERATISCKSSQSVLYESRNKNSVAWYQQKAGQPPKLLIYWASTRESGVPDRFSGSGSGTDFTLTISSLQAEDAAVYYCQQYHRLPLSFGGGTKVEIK

Each variant is given by its three light chain CDRs, as the data file delimits them; those of the parent are KSSQSVLYESRNKNSVA, WASTRES, QQYHRLPLS. Scale: log10 of Kd in nM, estimated from mating counts; low values are strong binders. A mean of the replicates is given; it leaves out those without a signal. "nd" marks a missing value. The strain was present, yet no cells mated with the target were sequenced in that replicate, which points to weak or no binding. Values of this round are not directly comparable with the first-round values of the same sequences.

CDR-L1	CDR-L2	CDR-L3	replicates, log10 nM	mean log10 Kd (nM)	empty controls
NFSQMVLSGSTLKNSVA	HASTREE	QQYHRLPLI	0.60 / 0.53 / 0.51 / 0.59 / 0.92 / 0.69	0.64	1 of 18 (2.55)
KISMLTMYESVAKNNIA	EMTTRPE	QSYHRLPLS	0.93 / 1.03 / 0.86 / 0.45 / 1.06 / 2.15	1.08	0 of 18
KLLQSVQYGMRALNSVA	QMETRED	QQYHRLPLS	1.42 / 0.86 / 1.28 / 0.81 / 1.57 / 1.06	1.17	1 of 18 (2.23)
MIGDTGLHDSRMQNSVA	NNSTREA	QQYHRLPLS	1.63 / 1.74 / 0.97 / 1.64 / 1.23 / 1.28	1.42	1 of 18 (1.90)
TITQSMLMTSHHMNSVA	HASTRED	QQYHRLPLI	0.94 / 0.93 / 0.79 / 0.91 / 0.78 / 1.08	0.90	0 of 18
HLSQMTDLESVHKNSIA	DLMTRES	QQYHRLPLS	0.53 / 0.21 / 0.21 / 0.10 / 0.20 / 0.26	0.25	5 of 18 (3.36)
KLRESYHVESKQKNNVA	DNSTRES	QDYHRLPLS	nd / nd / nd / nd / nd / nd	nd	1 of 18 (2.87)
KLSATYRYESQNKNSIA	EMSTREQ	QCYHRLPLS	0.76 / 0.49 / 0.77 / 0.71 / 0.80 / 0.53	0.68	2 of 18 (2.65)
KLSQLFYKESKKKNNVA	EMTTRGS	QQYDRLPLS	1.28 / 0.75 / 1.10 / 1.10 / 0.69 / 1.61	1.09	0 of 18
KLSEIAHFESRKKNSVA	ENSTREQ	QQYDHLPLS	1.95 / nd / 2.55 / 3.14 / nd / nd	2.55	1 of 18 (3.12)
ILSQSVLMGMHTKQNVA	QATMRFN	QQYHRLPFM	1.50 / 1.12 / 1.37 / 1.23 / 1.05 / 1.53	1.30	1 of 18 (3.20)
KLYNNVGTMSHNKQSIA	DMERRED	QQYHRLPLS	0.25 / 0.49 / 0.15 / -0.01 / 0.07 / 0.24	0.20	1 of 18 (2.65)
KISGQYRYEQLSKNNIA	EAQTRLK	QQYHRLPLS	1.19 / 1.76 / 1.76 / 1.47 / 1.87 / 1.34	1.56	0 of 18
TISQSFLMENQFKNSVA	QANTRES	QCYDRLPLS	2.04 / 1.08 / 2.31 / 1.00 / 0.73 / 0.91	1.34	0 of 18
ILYDSVGTLSRNKNSVA	DNSTRES	QQYDRLPLS	nd / 2.31 / 1.38 / 1.73 / 1.63 / 1.21	1.65	1 of 18 (2.54)
KFSQMVLTGLYVSNSVA	QMSTRVN	QQYHRLPLM	0.95 / 0.91 / 1.02 / 0.61 / 0.51 / 0.54	0.76	0 of 18
KLGDYVHTLSRNKNSIA	DMRTRES	QQYYRLPLS	0.26 / 0.05 / 0.13 / 0.21 / 0.16 / 0.18	0.16	0 of 18
MLSDTVMQGSYYKNSVA	QESTRAD	QQYHRLPLS	0.41 / 0.20 / 0.17 / -0.14 / 0.15 / 0.26	0.18	1 of 18 (3.16)
KISYMGEFFSTNHSAIA	QASTREQ	QQYHRLPLS	0.90 / 0.78 / 0.56 / 0.96 / 1.05 / 0.82	0.85	0 of 18
TISQSAQMESHNKNSVA	DLNTRGS	QQYDRLPLS	0.84 / 0.36 / 0.50 / 0.23 / 0.51 / 2.34	0.80	1 of 18 (1.77)
ILSQSVLMGMHTKNSVA	QATMRFN	QQYHRLPFM	2.02 / 1.26 / 1.45 / 1.91 / 1.42 / 2.40	1.74	2 of 18 (1.91)
QLSDLVKMESRNTNSVA	DNSTRGS	QQYDRLPLS	nd / nd / nd / 1.96 / nd / nd	1.96	0 of 18
MISQSFLIGMKAKNSVA	QTSTRES	QQYDRLPLS	0.79 / 0.81 / 0.88 / 0.39 / 0.51 / 0.92	0.71	0 of 18
TLGDVTRMESNKKNSIA	DMSNRAI	QQYHRLPIS	0.33 / 0.26 / 0.51 / 0.27 / 0.18 / 0.50	0.34	0 of 18
HISQMWFLESKNKNNVA	EESTRED	QSYFRLPLS	0.91 / 0.82 / 1.03 / 0.52 / 0.35 / 0.94	0.76	0 of 18
HLGGLMTWEEKARNSVA	QQNTRAE	QQYHRLPLS	0.52 / 0.32 / 0.23 / 0.33 / 0.39 / 0.35	0.36	2 of 18 (2.44)
KISGYLNKESKMKNSVA	EMVNRES	QQYDRLPLS	1.44 / 0.85 / 0.95 / 0.88 / 1.91 / 0.97	1.17	0 of 18
KLGQSVAMTSRNSNNVA	DLNERER	QQYHRLPLS	0.38 / 0.11 / 0.11 / -0.02 / 0.15 / 0.00	0.12	1 of 18 (2.68)
MISDLTMYGSRNVNSVA	DLSTRGI	QQYHRLPLS	-0.12 / -0.11 / -0.41 / -0.05 / -0.02 / 0.06	-0.11	0 of 18
KIGHGVTGTMRKGNSVA	QAETRLD	QQYHRLPLS	1.26 / 0.71 / 0.67 / 0.94 / 1.23 / 0.87	0.95	2 of 18 (1.47)
SLYDATGMESRNKNPIA	DVSTRPD	QQYHRLPLS	-0.47 / -0.44 / -0.47 / -0.63 / -0.46 / -0.34	-0.47	1 of 18 (3.30)
HISPSFMVESRLKNSVA	QTSTREQ	QQYDRLPLS	0.35 / 0.11 / 0.01 / -0.10 / -0.08 / 0.26	0.09	1 of 18 (3.06)
KIGHGLTTESRAKNSVA	QTETRVS	QHYHRLPLS	nd / nd / nd / nd / nd / nd	nd	0 of 18
KLYQATNMTSSMRNNVA	DLNERER	QQYFRLPLS	2.97 / 2.27 / 3.35 / 1.86 / 2.15 / 1.71	2.39	0 of 18
TISQMWFLESKNKNNVA	EENTRED	QSYFRLPLS	0.97 / 0.66 / 0.59 / 0.58 / 0.61 / 0.52	0.65	1 of 18 (1.69)
KFGQMVLTGSYVSNSVA	QSSTREN	QQYHRLPLS	-0.11 / -0.29 / 0.10 / 0.01 / -0.34 / 0.25	-0.07	1 of 18 (1.58)
MIAQGLRGVGRNKNSVA	NAQTRAS	QHYHRLPLS	1.00 / 1.22 / 1.05 / 0.57 / 0.89 / 1.67	1.07	0 of 18
IISQSMLIESATHNSIA	QTETREE	QQYHHLPLI	0.50 / 1.50 / 0.70 / nd / 2.09 / 1.49	1.26	0 of 18
KIAMSMNLTSHHINSVA	QSTTREE	QQYNHLPLS	1.34 / 1.03 / 1.04 / 0.08 / 0.73 / 1.60	0.97	0 of 18
KLYVTTMLESHNKNSIA	DLSTRGN	QQYHRLPLS	0.43 / 0.45 / 0.30 / 0.16 / 0.03 / 0.36	0.29	2 of 18 (2.66)
MISDLTMYGSRMKNSVA	DLSTRGS	QQYHRLPLS	0.14 / 0.02 / 0.44 / -0.19 / 0.02 / 0.77	0.20	0 of 18
KISQMVNYESTHVQAVA	QMSTREE	QQYFRLPLS	0.65 / 0.65 / 0.28 / 0.38 / 0.86 / 0.89	0.62	0 of 18

The 5 strongest on average among those seen in every replicate, once more:

CDR-L1,CDR-L2,CDR-L3,"replicates, log10 nM",mean log10 Kd (nM),empty controls
SLYDATGMESRNKNPIA,DVSTRPD,QQYHRLPLS,-0.47 / -0.44 / -0.47 / -0.63 / -0.46 / -0.34,-0.47,1 of 18 (3.30)
MISDLTMYGSRNVNSVA,DLSTRGI,QQYHRLPLS,-0.12 / -0.11 / -0.41 / -0.05 / -0.02 / 0.06,-0.11,0 of 18
KFGQMVLTGSYVSNSVA,QSSTREN,QQYHRLPLS,-0.11 / -0.29 / 0.10 / 0.01 / -0.34 / 0.25,-0.07,1 of 18 (1.58)
HISPSFMVESRLKNSVA,QTSTREQ,QQYDRLPLS,0.35 / 0.11 / 0.01 / -0.10 / -0.08 / 0.26,0.09,1 of 18 (3.06)
KLGQSVAMTSRNSNNVA,DLNERER,QQYHRLPLS,0.38 / 0.11 / 0.11 / -0.02 / 0.15 / 0.00,0.12,1 of 18 (2.68)

The authors' rule: three or more of the six replicates give a measured affinity, fewer mean a poor binder. Three control strains display no target. For all light chain designs, 4% of the pairings with them gave a signal, with a median of 2.64 and one signal in twenty below 1.59, so weak values seen in few replicates may be background. The control count says in how many pairings with the empty strains this scFv gave a signal, with their mean in brackets.